According to patent US20040038201A1, “Diagnostic and therapeutic applications for biomarkers of infection” (Whitehead Institute for Biomedical Research, priority 2002, published 2004):

What was measured:
human macrophages [1] = assay: Differential (Gram-negative/TLR4-specific) macrophage gene expression after bacterial components or cytokines, HuFL GeneChips; type: cell-based; settings: IFNs at 1000 units/mL
human macrophages [2] = assay: I-TAC ELISA of macrophage supernatants; type: cell-based; settings: 100 units/mL IFN

B1: IFN-β: IFN-β from Bioscience International (protein, UniProt P01574 22-187, looked up)
Interferon beta: MSYNLLGFLQRSSNFQCQKLLWQLNGRLEYCLKDRMNFDIPEEIKQLQQFQKEDAALTIYEMLQNIFAIFRQDSSSTGWNETIVENLLANVYHQINHLKTVLEEKLEKEDFTRGKLMSSLHLKRYYGRILHYLKAKEYSHCAWTIVRVEILRNFYFINRLTGYLRN
For B1, the “induction of the TLR4-induced core cluster of genes by cytokines” value (human macrophages [1]) was “sufficient to induce the expression of the TLR4-induced core cluster of genes” and the “I-TAC production by macrophages in response to IFNs” value (human macrophages [2]) was “sufficient to induce I-TAC production”.
